Source: patent publication US4906655A, “Novel 1,2-cyclohexylaminoaryl amides useful as analgesic agents” (dated 1990)

By UniProt entry, the sequences of proteins in these tests, tags left out. Where a name states a change or a piece, a line headed by the entry shows the natural chain unless it says otherwise. Residues count along the entry.
UniProt A0ACM8Q262, 1-400: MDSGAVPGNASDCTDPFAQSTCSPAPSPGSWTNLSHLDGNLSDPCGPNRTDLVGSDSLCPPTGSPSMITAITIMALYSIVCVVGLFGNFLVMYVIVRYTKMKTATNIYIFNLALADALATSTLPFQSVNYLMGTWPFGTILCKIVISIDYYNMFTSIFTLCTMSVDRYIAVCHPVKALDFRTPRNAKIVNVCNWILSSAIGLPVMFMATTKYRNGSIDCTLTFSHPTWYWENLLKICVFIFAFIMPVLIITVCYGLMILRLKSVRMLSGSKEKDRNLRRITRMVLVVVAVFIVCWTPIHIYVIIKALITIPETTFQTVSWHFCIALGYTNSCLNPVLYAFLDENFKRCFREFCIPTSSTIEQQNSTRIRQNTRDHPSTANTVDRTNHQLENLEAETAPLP
UniProt P41144: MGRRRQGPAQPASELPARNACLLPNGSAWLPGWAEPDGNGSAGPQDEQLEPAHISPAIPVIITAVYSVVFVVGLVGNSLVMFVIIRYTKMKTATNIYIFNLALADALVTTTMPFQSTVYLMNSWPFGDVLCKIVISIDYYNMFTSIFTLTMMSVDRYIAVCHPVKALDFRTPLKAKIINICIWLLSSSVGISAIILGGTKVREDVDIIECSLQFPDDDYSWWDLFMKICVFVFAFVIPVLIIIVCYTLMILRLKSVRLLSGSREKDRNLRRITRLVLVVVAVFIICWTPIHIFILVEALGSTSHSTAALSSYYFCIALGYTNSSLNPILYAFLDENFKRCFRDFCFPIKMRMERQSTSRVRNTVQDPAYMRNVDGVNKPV

Assays:
[1] = target: mu opioid receptor (Cavia porcellus, UniProt A0ACM8Q262); experiment: mu opioid receptor binding, tritiated DAGO, brain homogenates
[2] = target: kappa opioid receptor (Cavia porcellus, UniProt P41144); experiment: kappa opioid receptor binding, tritiated etorphine, brain homogenates; settings: for mu/k (mu/kappa ratio of ki): ratio of mu ki to kappa ki

Compound	Ki [1] [µM]	Ki [2] [nM]	mu/k (mu/kappa ratio of ki) [2]
CN(C(=O)Cc1cccc2c1CCO2)[C@H]1CC[C@@]2(CCCO2)C[C@@H]1N1CCCC1 (single isomer, unassigned)	4.93	9.7	508
CN(C(=O)Cc1cccc2c1COC2=O)[C@H]1CC[C@@]2(CCCO2)C[C@@H]1N1CCCC1 (single isomer, unassigned)	2.87	5.3	541
